# Reference: PubChem BioAssay AID709 (SRMLSC, 2007)
# The list shows a part of the results, in another mix than the full data. Active and inactive are the calls of the source.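 Rule for the calls: active = at 10 µM, mean starting fluorescence two-fold or more over control wells; inactive = the rest.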
# Assay: intrinsic fluorescence of library compounds, ex339/em460 – biochemical, MLSMR library, data from DPM-DC assay, artefact control, profiling panel (AID 709);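 note: signal is the first read of a kinetic run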
# Conditions: compound autofluorescence, ex339/em460 nm, NADH buffer; at 10 µM; stronger effect = higher value; 1 = no-compound wells, NADH background
row,Compound,fluorescence fold increase
1,O=C(COc1ccccc1)OC1CN2CCC1CC2 (stereo not given),inactive: 1.07
2,COP1(=S)c2c(C)nn(CCC#N)c2N=C(c2ccc(F)cc2)N1C (stereo not given),inactive: 1.05
3,O=C(OC1CN2CCC1CC2)C12CC3CC(CC(C3)C1)C2 (stereo not given),inactive: 1.08
4,O=P(Nc1nccs1)(c1ccccc1)c1nc2ccccc2s1 (stereo not given),inactive: 1.31
5,CCOP1(=S)c2c(C)nn(CCC#N)c2N=C(c2ccccc2F)N1C (stereo not given),inactive: 0.99
6,CCOP1(=S)c2c(C)nn(CCC#N)c2N=C(c2ccc(F)cc2)N1C (stereo not given),inactive: 1.02
7,Cc1cccc(OCC(=O)OC2CN3CCC2CC3)c1 (stereo not given),inactive: 1.05
8,Clc1n[nH]nc1-c1nn[nH][15n]1,inactive: 1.13
9,O=P1(Nc2ccccn2)COc2ccccc2OC1,inactive: 1.04
10,Cc1nn(-c2ccccc2)c2c1P(=O)(N1CCOCC1)N(C)C(c1ccccc1)=N2 (stereo not given),inactive: 1.04
11,O=P1(Nc2ccc(Br)cn2)COc2ccccc2OC1,inactive: 1.15
12,Cc1ccc(OCC(=O)OC2CN3CCC2CC3)cc1 (stereo not given),inactive: 1.12
13,O=P1(Nc2ncccn2)COc2ccccc2OC1,inactive: 1.05
14,O=C(OC1CN2CCC1CC2)c1cccc(Cl)c1 (stereo not given),inactive: 1.09
15,c1nnnn1CCn1cnnn1,inactive: 1.07
16,O=P(Nc1nccs1)(c1ccccc1)c1ccccc1,inactive: 0.96
17,O=P1(Nc2nc3ccc(Cl)cc3s2)COc2ccccc2O1 (stereo not given),inactive: 1.12
18,COC(=O)c1cc2c(s1)N=C(c1ccccc1)N(C)P2(=O)N1CCOCC1 (stereo not given),inactive: 1.1
19,Cc1c2non([O-])c-2c(C)[n+](=O)[n+]1[O-],inactive: 1.06
20,CCc1nc2c(n1)c1c(non1O)c1c2no[n+]1[O-],inactive: 1.13
